{"sequences": {"note": "Chains of the proteins cited; added tags and fusions are not shown. Residues count along the entry.", "UniProt O94921, whole entry": "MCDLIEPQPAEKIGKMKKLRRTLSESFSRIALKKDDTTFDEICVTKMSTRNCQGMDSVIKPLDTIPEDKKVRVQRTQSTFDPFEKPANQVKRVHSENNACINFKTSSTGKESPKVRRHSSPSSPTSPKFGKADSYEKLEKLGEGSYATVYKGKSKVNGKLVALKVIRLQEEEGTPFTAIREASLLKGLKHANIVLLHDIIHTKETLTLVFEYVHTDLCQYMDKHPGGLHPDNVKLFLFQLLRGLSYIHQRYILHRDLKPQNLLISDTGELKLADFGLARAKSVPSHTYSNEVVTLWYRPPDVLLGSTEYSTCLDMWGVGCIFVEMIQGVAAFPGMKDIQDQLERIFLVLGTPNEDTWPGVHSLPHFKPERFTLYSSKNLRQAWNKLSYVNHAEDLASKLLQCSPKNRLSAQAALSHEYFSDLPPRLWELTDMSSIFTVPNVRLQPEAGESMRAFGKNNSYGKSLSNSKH", "UniProt Q96GD4, whole entry": "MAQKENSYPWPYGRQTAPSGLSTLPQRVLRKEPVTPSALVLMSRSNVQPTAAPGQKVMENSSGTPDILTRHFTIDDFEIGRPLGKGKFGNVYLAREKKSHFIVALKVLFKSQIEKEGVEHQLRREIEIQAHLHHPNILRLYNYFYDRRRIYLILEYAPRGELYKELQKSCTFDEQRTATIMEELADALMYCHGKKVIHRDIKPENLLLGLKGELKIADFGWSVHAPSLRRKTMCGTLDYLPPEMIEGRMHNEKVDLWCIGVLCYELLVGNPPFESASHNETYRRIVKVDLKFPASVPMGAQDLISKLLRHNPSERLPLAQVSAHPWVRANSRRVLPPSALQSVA", "UniProt P30085, whole entry": "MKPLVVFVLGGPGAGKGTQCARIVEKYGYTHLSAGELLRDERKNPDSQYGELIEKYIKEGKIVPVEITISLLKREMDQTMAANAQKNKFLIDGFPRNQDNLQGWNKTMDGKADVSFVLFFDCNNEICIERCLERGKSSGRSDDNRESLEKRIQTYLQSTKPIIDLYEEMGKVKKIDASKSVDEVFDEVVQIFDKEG", "UniProt Q08345, 19-913 limits assumed": "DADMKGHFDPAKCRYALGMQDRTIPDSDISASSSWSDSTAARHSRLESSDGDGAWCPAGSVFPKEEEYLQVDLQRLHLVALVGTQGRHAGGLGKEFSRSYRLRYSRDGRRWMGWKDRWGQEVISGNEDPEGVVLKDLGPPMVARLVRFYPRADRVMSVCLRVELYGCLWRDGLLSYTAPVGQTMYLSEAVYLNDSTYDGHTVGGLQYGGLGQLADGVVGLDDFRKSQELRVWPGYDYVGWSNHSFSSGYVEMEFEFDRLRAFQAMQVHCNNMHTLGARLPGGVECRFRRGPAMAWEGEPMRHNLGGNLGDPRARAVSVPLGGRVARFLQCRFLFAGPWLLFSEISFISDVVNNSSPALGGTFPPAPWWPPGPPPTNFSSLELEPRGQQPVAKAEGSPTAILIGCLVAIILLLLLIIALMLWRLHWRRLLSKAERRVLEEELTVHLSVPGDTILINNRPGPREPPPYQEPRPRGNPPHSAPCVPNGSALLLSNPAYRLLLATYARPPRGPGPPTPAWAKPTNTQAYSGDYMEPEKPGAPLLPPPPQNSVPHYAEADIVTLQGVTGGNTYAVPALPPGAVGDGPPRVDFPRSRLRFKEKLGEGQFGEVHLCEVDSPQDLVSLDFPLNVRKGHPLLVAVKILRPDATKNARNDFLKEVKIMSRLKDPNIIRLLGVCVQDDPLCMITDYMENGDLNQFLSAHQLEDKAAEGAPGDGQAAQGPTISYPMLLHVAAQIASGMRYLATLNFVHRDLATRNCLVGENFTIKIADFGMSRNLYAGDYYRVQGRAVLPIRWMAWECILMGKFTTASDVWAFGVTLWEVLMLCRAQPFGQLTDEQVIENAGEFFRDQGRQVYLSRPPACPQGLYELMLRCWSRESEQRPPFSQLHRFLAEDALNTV", "UniProt Q9BTU6, whole entry": "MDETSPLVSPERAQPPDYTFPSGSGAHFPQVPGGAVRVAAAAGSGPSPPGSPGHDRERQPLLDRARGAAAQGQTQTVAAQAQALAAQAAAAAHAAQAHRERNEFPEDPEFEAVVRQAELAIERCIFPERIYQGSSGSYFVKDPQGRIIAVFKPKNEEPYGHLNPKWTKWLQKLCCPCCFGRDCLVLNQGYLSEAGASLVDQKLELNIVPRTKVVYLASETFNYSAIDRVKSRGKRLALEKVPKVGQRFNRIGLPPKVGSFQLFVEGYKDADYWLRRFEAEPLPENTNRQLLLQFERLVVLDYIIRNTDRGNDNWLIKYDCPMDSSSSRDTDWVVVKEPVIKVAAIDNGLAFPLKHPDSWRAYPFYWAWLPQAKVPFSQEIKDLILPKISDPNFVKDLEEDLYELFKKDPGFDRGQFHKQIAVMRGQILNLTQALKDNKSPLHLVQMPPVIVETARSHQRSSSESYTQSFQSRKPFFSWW", "UniProt Q13572, whole entry": "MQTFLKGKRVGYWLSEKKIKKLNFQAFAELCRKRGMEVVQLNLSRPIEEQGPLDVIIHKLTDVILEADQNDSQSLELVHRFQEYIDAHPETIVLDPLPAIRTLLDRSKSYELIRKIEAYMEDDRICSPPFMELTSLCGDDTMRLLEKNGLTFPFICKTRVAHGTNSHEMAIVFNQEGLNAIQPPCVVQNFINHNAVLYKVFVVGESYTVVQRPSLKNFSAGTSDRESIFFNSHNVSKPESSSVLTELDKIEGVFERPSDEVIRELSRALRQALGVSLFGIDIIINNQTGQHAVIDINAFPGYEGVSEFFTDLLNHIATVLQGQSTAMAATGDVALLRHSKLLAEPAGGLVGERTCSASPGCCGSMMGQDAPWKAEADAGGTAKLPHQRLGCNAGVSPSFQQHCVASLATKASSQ", "UniProt Q16659, whole entry": "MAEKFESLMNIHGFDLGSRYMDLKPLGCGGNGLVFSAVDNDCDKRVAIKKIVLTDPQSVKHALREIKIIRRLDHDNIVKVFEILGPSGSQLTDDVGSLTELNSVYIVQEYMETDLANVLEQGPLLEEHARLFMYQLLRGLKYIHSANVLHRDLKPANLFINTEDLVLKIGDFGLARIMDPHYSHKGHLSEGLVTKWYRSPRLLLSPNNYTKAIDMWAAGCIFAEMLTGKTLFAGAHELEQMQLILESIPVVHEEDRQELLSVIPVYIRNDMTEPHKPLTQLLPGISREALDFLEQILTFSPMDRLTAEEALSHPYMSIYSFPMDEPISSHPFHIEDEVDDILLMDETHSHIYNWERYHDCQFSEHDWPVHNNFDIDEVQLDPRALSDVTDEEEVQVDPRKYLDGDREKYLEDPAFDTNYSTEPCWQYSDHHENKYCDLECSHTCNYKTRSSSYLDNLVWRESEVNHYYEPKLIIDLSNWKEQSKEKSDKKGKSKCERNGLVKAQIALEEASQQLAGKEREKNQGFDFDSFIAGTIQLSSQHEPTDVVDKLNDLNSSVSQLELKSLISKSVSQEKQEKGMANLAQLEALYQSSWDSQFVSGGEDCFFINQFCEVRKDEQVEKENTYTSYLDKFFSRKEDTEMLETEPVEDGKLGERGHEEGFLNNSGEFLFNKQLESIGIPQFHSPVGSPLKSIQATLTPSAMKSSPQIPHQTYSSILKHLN", "UniProt Q96L34, whole entry": "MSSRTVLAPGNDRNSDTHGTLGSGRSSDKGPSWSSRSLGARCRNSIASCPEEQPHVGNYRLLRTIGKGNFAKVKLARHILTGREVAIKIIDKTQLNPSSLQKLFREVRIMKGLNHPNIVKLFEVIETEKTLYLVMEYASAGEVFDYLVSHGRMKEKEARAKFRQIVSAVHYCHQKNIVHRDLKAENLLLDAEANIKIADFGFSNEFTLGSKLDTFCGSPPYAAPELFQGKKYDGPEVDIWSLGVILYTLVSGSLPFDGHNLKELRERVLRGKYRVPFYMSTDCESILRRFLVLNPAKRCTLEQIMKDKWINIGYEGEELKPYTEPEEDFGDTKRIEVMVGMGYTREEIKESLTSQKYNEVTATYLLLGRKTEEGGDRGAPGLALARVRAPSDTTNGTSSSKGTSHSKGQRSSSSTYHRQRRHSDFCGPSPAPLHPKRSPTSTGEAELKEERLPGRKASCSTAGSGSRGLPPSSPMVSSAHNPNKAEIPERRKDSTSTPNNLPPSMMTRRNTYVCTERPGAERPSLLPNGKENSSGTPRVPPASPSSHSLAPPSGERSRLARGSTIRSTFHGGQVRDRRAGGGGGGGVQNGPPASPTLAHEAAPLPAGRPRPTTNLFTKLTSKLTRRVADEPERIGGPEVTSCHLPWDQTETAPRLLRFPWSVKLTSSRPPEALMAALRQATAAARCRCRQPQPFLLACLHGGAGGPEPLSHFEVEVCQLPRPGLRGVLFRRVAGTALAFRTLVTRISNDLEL", "UniProt Q13163, whole entry": "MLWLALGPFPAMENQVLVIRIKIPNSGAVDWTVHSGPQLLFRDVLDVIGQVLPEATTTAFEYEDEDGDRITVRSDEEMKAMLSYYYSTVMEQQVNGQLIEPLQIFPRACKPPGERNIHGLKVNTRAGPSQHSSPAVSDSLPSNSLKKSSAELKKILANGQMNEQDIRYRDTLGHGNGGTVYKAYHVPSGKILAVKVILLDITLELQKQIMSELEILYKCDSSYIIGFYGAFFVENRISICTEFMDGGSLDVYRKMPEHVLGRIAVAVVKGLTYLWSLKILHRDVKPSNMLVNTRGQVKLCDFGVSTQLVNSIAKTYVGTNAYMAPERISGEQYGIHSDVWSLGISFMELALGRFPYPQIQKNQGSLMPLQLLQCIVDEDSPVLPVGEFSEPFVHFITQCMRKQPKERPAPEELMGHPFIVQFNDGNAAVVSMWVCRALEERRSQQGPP", "UniProt P14618, whole entry": "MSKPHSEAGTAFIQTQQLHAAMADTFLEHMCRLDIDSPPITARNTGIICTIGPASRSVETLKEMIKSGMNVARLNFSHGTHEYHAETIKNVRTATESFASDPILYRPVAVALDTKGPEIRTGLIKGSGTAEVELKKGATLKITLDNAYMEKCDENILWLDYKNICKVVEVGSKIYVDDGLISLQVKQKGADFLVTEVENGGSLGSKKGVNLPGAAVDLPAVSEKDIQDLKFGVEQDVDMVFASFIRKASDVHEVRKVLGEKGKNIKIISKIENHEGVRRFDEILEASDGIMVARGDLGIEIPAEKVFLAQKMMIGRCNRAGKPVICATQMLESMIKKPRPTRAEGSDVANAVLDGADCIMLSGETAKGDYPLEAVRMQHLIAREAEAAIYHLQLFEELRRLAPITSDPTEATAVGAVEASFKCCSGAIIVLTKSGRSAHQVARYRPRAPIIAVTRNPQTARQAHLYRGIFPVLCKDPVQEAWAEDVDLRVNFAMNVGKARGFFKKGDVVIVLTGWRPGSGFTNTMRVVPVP", "UniProt O75716, whole entry": "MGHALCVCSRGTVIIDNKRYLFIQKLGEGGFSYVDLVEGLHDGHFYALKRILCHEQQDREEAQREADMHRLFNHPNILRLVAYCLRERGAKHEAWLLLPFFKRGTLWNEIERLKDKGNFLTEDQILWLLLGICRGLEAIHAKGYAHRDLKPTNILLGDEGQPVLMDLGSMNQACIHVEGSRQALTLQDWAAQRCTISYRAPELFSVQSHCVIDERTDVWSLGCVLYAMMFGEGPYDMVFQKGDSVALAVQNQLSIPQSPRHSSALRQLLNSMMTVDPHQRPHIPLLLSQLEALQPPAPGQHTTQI", "UniProt Q8TD19, whole entry": "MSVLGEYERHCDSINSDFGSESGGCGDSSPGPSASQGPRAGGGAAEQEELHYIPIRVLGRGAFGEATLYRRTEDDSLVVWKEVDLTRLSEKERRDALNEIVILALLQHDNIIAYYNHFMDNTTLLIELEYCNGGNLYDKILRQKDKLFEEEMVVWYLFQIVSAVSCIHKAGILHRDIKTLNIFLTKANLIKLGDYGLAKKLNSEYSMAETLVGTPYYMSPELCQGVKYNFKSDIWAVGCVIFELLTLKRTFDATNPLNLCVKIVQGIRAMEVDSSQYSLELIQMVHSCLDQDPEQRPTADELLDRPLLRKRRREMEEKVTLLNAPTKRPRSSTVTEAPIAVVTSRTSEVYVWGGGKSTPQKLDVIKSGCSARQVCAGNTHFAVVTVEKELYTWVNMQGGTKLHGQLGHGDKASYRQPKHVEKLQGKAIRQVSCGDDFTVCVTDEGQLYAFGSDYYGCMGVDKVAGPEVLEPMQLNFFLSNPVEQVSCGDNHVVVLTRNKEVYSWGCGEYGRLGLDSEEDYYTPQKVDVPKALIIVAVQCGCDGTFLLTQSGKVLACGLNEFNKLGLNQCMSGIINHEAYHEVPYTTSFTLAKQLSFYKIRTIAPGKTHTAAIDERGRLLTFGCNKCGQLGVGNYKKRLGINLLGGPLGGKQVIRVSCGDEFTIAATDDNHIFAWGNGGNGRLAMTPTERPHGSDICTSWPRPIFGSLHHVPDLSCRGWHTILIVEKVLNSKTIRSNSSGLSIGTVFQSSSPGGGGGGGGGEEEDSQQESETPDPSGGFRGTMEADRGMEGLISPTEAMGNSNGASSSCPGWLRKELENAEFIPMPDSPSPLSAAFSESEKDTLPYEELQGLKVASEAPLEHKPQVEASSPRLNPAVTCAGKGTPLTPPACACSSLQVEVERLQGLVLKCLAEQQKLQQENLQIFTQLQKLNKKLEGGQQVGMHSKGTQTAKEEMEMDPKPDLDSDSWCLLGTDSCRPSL"}, "source": "patent US20260384438A1", "about": "“PYRROLOPYRIMIDINE CARBOXAMIDES” (published 2026)", "assay_in_all_cases": "KAT chemical proteomics", "key": {"CDC7": {"molecular_target": "CDC7 (Homo sapiens, UniProt O00311)"}, "CDK14": {"molecular_target": "CDK14 (Homo sapiens, UniProt O94921)"}, "STK33": {"molecular_target": "STK33 (Homo sapiens, UniProt Q9BYT3)"}, "CSNK1G1": {"molecular_target": "CSNK1G1 (Homo sapiens, UniProt Q9HCP0)"}, "HTATIP2": {"molecular_target": "HTATIP2 (Homo sapiens, UniProt Q9BUP3)"}, "CIT": {"molecular_target": "CIT (Homo sapiens, UniProt O14578)"}, "TTK": {"molecular_target": "TTK (Homo sapiens, UniProt P33981)"}, "MAP3K4": {"molecular_target": "MAP3K4 (Homo sapiens, UniProt Q9Y6R4)"}, "AURKB": {"molecular_target": "AURKB (Homo sapiens, UniProt Q96GD4)"}, "CMPK1": {"molecular_target": "CMPK1 (Homo sapiens, UniProt P30085)"}, "DDR1": {"molecular_target": "DDR1 (Homo sapiens, UniProt Q08345)"}, "EPHB1": {"molecular_target": "EPHB1 (Homo sapiens, UniProt P54762)"}, "EPHA7": {"molecular_target": "EPHA7 (Homo sapiens, UniProt Q15375)"}, "ATM": {"molecular_target": "ATM (Homo sapiens, UniProt Q13315)"}, "RAF1": {"molecular_target": "RAF1 (Homo sapiens, UniProt P04049)"}, "CDK7": {"molecular_target": "CDK7 (Homo sapiens, UniProt P50613)"}, "PI4K2A": {"molecular_target": "PI4K2A (Homo sapiens, UniProt Q9BTU6)"}, "NTRK1": {"molecular_target": "NTRK1 (Homo sapiens, UniProt P04629)"}, "ITPK1": {"molecular_target": "ITPK1 (Homo sapiens, UniProt Q13572)"}, "FKBP1A": {"tested_on": "FKBP1A"}, "NME3": {"molecular_target": "NME3 (Homo sapiens, UniProt Q13232)"}, "RPS6KA2": {"molecular_target": "RPS6KA2 (Homo sapiens, UniProt Q15349)"}, "MAPK6": {"molecular_target": "MAPK6 (Homo sapiens, UniProt Q16659)"}, "CSNK1G3": {"molecular_target": "CSNK1G3 (Homo sapiens, UniProt Q9Y6M4)"}, "MARK4": {"molecular_target": "MARK4 (Homo sapiens, UniProt Q96L34)"}, "PRKCA": {"molecular_target": "PRKCA (Homo sapiens, UniProt P17252)"}, "MAPK11": {"molecular_target": "MAPK11 (Homo sapiens, UniProt Q15759)"}, "MAP2K5": {"molecular_target": "MAP2K5 (Homo sapiens, UniProt Q13163)"}, "LYN": {"molecular_target": "LYN (Homo sapiens, UniProt P07948)"}, "STK11": {"molecular_target": "STK11 (Homo sapiens, UniProt Q15831)"}, "PKM": {"molecular_target": "PKM (Homo sapiens, UniProt P14618)"}, "NEK1": {"molecular_target": "NEK1 (Homo sapiens, UniProt Q96PY6)"}, "SIK2": {"molecular_target": "SIK2 (Homo sapiens, UniProt Q9H0K1)"}, "STK16": {"molecular_target": "STK16 (Homo sapiens, UniProt O75716)"}, "RPS6KA3": {"molecular_target": "RPS6KA3 (Homo sapiens, UniProt P51812)"}, "PDXK": {"molecular_target": "PDXK (Homo sapiens, UniProt O00764)"}, "CDK2": {"molecular_target": "CDK2 (Homo sapiens, UniProt P24941)"}, "COASY": {"molecular_target": "COASY (Homo sapiens, UniProt Q13057)"}, "STK17B": {"molecular_target": "STK17B (Homo sapiens, UniProt O94768)"}, "NEK9": {"molecular_target": "NEK9 (Homo sapiens, UniProt Q8TD19)"}}, "data": [{"smiles": "Cc1nc(C(F)(F)F)c2c(C(N)=O)c(N)n(-c3c(C)ccc(O)c3C)c2n1", "note": "(single isomer, unassigned)", "values": [{"measurement": "RB50", "setting": "CDC7", "result": ">50", "unit": "µM"}, {"measurement": "RB50", "setting": "CDK14", "result": ">50", "unit": "µM"}, {"measurement": "RB50", "setting": "STK33", "result": ">50", "unit": "µM"}, {"measurement": "RB50", "setting": "CSNK1G1", "result": ">50", "unit": "µM"}, {"measurement": "RB50", "setting": "HTATIP2", "result": ">50", "unit": "µM"}, {"measurement": "RB50", "setting": "CIT", "result": ">50", "unit": "µM"}, {"measurement": "RB50", "setting": "TTK", "result": ">50", "unit": "µM"}, {"measurement": "RB50", "setting": "MAP3K4", "result": ">50", "unit": "µM"}, {"measurement": "RB50", "setting": "AURKB", "result": ">50", "unit": "µM"}, {"measurement": "RB50", "setting": "CMPK1", "result": ">50", "unit": "µM"}, {"measurement": "RB50", "setting": "DDR1", "result": 364, "unit": "nM"}, {"measurement": "RB50", "setting": "EPHB1", "result": 191, "unit": "nM"}, {"measurement": "RB50", "setting": "EPHA7", "result": ">50", "unit": "µM"}, {"measurement": "RB50", "setting": "ATM", "result": ">50", "unit": "µM"}, {"measurement": "RB50", "setting": "RAF1", "result": ">50", "unit": "µM"}, {"measurement": "RB50", "setting": "CDK7", "result": ">50", "unit": "µM"}, {"measurement": "RB50", "setting": "PI4K2A", "result": ">50", "unit": "µM"}, {"measurement": "RB50", "setting": "NTRK1", "result": ">50", "unit": "µM"}, {"measurement": "RB50", "setting": "ITPK1", "result": ">50", "unit": "µM"}, {"measurement": "RB50", "setting": "FKBP1A", "result": ">50", "unit": "µM"}, {"measurement": "RB50", "setting": "NME3", "result": ">50", "unit": "µM"}, {"measurement": "RB50", "setting": "RPS6KA2", "result": ">50", "unit": "µM"}, {"measurement": "RB50", "setting": "MAPK6", "result": ">50", "unit": "µM"}, {"measurement": "RB50", "setting": "CSNK1G3", "result": ">50", "unit": "µM"}, {"measurement": "RB50", "setting": "MARK4", "result": ">50", "unit": "µM"}, {"measurement": "RB50", "setting": "PRKCA", "result": ">50", "unit": "µM"}, {"measurement": "RB50", "setting": "MAPK11", "result": ">50", "unit": "µM"}, {"measurement": "RB50", "setting": "MAP2K5", "result": ">50", "unit": "µM"}, {"measurement": "RB50", "setting": "LYN", "result": ">50", "unit": "µM"}, {"measurement": "RB50", "setting": "STK11", "result": ">50", "unit": "µM"}, {"measurement": "RB50", "setting": "PKM", "result": ">50", "unit": "µM"}, {"measurement": "RB50", "setting": "NEK1", "result": ">50", "unit": "µM"}, {"measurement": "RB50", "setting": "SIK2", "result": ">50", "unit": "µM"}, {"measurement": "RB50", "setting": "STK16", "result": ">50", "unit": "µM"}, {"measurement": "RB50", "setting": "RPS6KA3", "result": ">50", "unit": "µM"}, {"measurement": "RB50", "setting": "PDXK", "result": ">50", "unit": "µM"}, {"measurement": "RB50", "setting": "CDK2", "result": ">50", "unit": "µM"}, {"measurement": "RB50", "setting": "COASY", "result": ">50", "unit": "µM"}, {"measurement": "RB50", "setting": "STK17B", "result": ">50", "unit": "µM"}, {"measurement": "RB50", "setting": "NEK9", "result": ">50", "unit": "µM"}]}]}
